Results: patent publication US20090196871A1, “USE OF 4-PYRIDYLMETHYLPHTHALAZINES FOR CANCER TREATMENT” (priority 2001, published 2009)

System: metastatic colorectal cancer
Experiment: Example 1: combination with oxaplatin/folinic acid/5-fluorouracil chemotherapy in patients
Type: in vivo, human
Settings: co-administration of 1-(4-chloroanilino)-4-(4-pyridylmethyl)phthalazine
Procedure: 15 Patients with histologically confirmed metastatic colorectal cancer seven of which had previously received adjuvant chemotherapy are treated with a combination of 1-(4-chloro-anilino)-4-(4-pyridylmethyl)phthalazine and a chemotherapy regimen. The chemotherapy regimen is 85 mg/m^2 of oxaplatin on day 1, 200 mg/m^2 of folinic acid given as a 2 hour infusion on days 1 and 2, and S-fluorouracil administered as a bolus at a dose of 400 mg/m^2 followed by 600 mg/m^2 over 22 hours on days 1 and 2. The chemotherapy regimen is given every 14 days. […] The treatment is well-tolerated. […] Stable diseases are observed in 2 patients, minor responses in 3 patients and partial responses in 8 patients.

O=C1[O][Pt]2([NH][C@@H]3CCCC[C@H]3[NH]2)[O]C1=O [oxaplatin, reference compound]
pharmacokinetics of oxaplatin on co-administration: not altered
